Assays:
[1] = tested on: hTERT-HME1 cells carrying EGFR (delE746-A750) KI; assay: Drug assay: cell viability by ATP content (CellTiter-Glo, 96 h), KI versus parental cells; ΔKI pharmarray analysis
[2] = tested on: hTERT-HME1 DKI cells carrying PIK3CA (H1047R) and EGFR (delE746-A750); assay: Drug assay: cell viability by ATP content (96 h), DKI versus parental cells; ΔKI pharmarray analysis
[3] = tested on: hTERT-HME1 cells carrying PIK3CA (E545K and H1047R) KI; assay: Drug assay: cell viability by ATP content (96 h) and Hoechst/propidium iodide staining, KI versus parental cells; ΔKI pharmarray analysis

Row | Compound | pharmarray: differential response of EGFR mutated cells versus WT [1] | sensitization in DKI cells containing both EGFR and PIK3CA alterations [2] | ΔKI PIK3CA + EGFR [2] | ΔKI PIK3CA [3] | ΔKI EGFR [1]
1 | Cc1nc(Nc2ncc(C(=O)Nc3c(C)cccc3Cl)s2)cc(N2CCN(CCO)CC2)n1 [dasatinib, Dasatinib monohydrate] | EGFR sensitive drug cluster |  |  |  | 
2 | COc1cc2ncnc(Nc3ccc(F)c(Cl)c3)c2cc1OCCCN1CCOCC1 [gefitinib, Gefitinib] | inhibit EGFR mutated cells selectively | abrogates the sensitization seen with the EGFR KI alone |  |  | 
3 | Sunitinib Maleate |  |  | 0 | 0 | 0

Source: patent US20120115896A1, “ISOGENIC HUMAN CELL LINES COMPRISING MUTATED CANCER ALLELES AND PROCESS USING THE CELL LINES” (priority 2008, published 2012)
